Measured values from patent publication US5618812A, “Benzodiazepine derivatives” (Merck Sharp & Dohme, Ltd., priority 1992, dated 1997).
Counter-ions that a name gives are not always drawn.

Sequences of proteins named here, by UniProt entry; tags and fusion partners are left off.
UniProt P30551, whole entry: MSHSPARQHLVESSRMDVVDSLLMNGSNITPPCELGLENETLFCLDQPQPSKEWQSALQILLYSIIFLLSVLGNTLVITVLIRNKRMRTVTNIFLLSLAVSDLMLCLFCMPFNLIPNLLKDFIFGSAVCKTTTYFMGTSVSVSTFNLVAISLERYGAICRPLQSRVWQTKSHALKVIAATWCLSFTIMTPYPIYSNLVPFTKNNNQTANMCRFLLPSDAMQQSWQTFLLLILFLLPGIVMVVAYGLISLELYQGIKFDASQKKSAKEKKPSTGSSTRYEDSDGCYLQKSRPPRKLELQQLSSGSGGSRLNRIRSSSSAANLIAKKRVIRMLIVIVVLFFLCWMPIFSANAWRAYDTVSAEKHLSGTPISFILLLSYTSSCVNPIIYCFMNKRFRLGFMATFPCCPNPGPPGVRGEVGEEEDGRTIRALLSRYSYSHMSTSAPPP

Target: CCK-A (Rattus norvegicus, UniProt P30551)
Experiment: biochemical
Details: CCK RECEPTOR BINDING RESULTS IC50 125I-CCK Pancreas
Method: The CCK-A and CCK-B antagonising activity of the compounds described herein was evaluated using the assays described in published European patent application no. 0514133. The method essentially involves determining the concentration of the test compound required to displace 50% of the specific ^125 I-CCK from rat pancreas (CCK-A) or guinea pig brain (CCK-B). The data in Table 1 were obtained for compounds of the Examples.

With Cc1cccc(NC(=O)NC2N=C(N3CC4CCC(CC4)C3)c3ccccc3N(C)C2=O)c1 (single isomer, unassigned; (-)) [Example 33, (-)-N-[5-(3-Azabicyclo[3,2,2]nonan-3-yl)-2,3-dihydro-1-methyl-2-oxo-1H-1,4-benzodiazepin-3-yl]-N'-[3-methylphenyl]urea Hydrochloride] the IC50 was 1600 nM.
